Chains of the proteins cited; added tags and fusions are not shown.
UniProt P48764, whole entry: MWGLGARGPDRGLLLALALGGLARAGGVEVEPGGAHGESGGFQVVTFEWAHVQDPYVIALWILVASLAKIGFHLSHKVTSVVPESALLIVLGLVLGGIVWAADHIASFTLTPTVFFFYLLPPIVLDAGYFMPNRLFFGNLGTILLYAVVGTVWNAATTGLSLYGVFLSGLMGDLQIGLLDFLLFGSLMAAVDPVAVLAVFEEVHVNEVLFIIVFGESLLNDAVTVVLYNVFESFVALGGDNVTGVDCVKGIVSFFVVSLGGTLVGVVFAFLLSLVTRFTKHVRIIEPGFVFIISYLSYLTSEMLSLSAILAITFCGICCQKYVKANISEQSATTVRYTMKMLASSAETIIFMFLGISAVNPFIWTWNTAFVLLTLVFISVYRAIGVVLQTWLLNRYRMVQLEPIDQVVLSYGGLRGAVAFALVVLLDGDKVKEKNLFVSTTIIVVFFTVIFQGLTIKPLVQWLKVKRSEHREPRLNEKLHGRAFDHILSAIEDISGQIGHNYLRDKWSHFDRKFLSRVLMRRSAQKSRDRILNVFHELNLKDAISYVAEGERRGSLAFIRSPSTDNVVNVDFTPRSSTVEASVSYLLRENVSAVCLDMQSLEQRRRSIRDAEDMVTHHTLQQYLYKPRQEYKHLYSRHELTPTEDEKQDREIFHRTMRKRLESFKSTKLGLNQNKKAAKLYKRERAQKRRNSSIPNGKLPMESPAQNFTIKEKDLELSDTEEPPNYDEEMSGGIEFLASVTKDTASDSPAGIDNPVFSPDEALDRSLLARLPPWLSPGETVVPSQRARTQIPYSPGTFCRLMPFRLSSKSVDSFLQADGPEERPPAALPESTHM

According to US20240082406A1, “BENZOHETEROCYCLE SUBSTITUTED TETRAHYDROISOQUINOLINE COMPOUND” (SHANGHAI JEMINCARE PHARMACEUTICAL CO., LTD, priority 2020, published 2024):

Columns and labels:
[1] = molecular target: NHE3 (UniProt P48764); experiment: Cell-based NHE3 activity under transient conditions (BCECF-AM intracellular pH, FLIPR); details: read-out: Cell-based NHE3 inhibition IC50 (uM) under transient conditions, embodiment compounds, opossum kidney cells expressing NHE3, tested form: HCl
Source text: (§1) Opossum kidney (OK) cells were obtained from ATCC and cultured and expanded according to its instructions. OK monoclonal stable cell lines expressing the Rat NHE3 (Gene Bank registration number: M85300) protein and OK monoclonal stable cell lines expressing the Human NHE3 (Gene Bank registration number: NM_004174.1) protein were constructed by lentivirus infection.
The general procedure of the cell-based NHE3 activity experiments under transient conditions (transient inhibition) was based on an adaptation method of the pH-sensitive dye method originally reported by Tisen (Proc. Natl. Acad. Sci. USA) (1984) 81(23):7436-7440) to measure rat NHE3-mediated Na+-dependent reverse H+ transport, and was optimized according to the instructions “Measuring Intracellular pH With the FLIPR and FLIPR 384 Fluorometric Imaging Plate Reader Systems” published by Molecular Devices. The specific method was: Rat NHE3 OK monoclonal cells or Human NHE3 OK monoclonal cells were inoculated into 384-well plates and grew overnight. […] NHE3-mediated pH sensitization in cells was normalized by addition of containing 0.4 mM amiloride (EIPA) and […] test compound or Na-HEPES buffer (100 mM NaCl, 50 mM HEPES, 10 mM glucose, 5 mM KCl, 2 mM CaCl2), 1 mM MgCl2, pH 7.4) and monitoring of BCECF-AM fluorescence at λem 535 nm excitated by λex 440 nm and λex 490 nm respectively. […]

[2] = molecular target: NHE3 (UniProt P48764); experiment: Cell-based NHE3 activity under persistent conditions (60 min pre-incubation, compound removed); details: read-out: Cell-based NHE3 inhibition IC50 (uM) under persistent conditions, opossum kidney cells expressing NHE3, tested form: HCl
Source text: as §1
The general procedure of the cell-based NHE3 activity assay under persistent conditions (persistent inhibition) was: Rat NHE3 OK monoclonal cells or Human NHE3 OK monoclonal cells were inoculated into 384-well plates and grew overnight. The medium was aspirated from the wells and the cells were washed twice with FLIPR buffer (Hank's BSS 1×, 20 mM HEPES, 1% BSA) followed by the addition of Na-HEPES buffer containing […] test compound (100 mM NaCl, 50 mM HEPES, 10 mM glucose, 5 mM KCl, 2 mM CaCl2, 1 mM MgCl2, pH 7.4) and incubated for 60 minutes at room temperature. […] Ratio=fluorescence value (λex 490 nm)/fluorescence value (λex 440 nm) was set, the average value of the Ratio difference between the end time and the start time between the duplicate wells was calculated, the average value and the concentration value of the compound were drawn, and the dose-response-inhibition (four parameters) equation was used to estimate EC50 value by GraphpadPrism.

IC50 [1]: 0.16 µM
IC50 [2]: 0.02 µM
SMILES: CN1Cc2c(Cl)cc(Cl)cc2C(c2ccc3cn(CCOCCOCCOCCNC(=O)NCCCCNC(=O)NCCOCCOCCOCCn4cc5ccc(C6CN(C)Cc7c(Cl)cc(Cl)cc76)cc5n4)nc3c2)C1 (centres unmarked)
